The test system of this data set is L-02 cells. As to the kind of experiment: Biochemical indicators of hepatotoxicity (ALT, AST, LDH, ALP activity) of L-02 cells, without and with p38 inhibitor SB203580. The format is cell-based, human. As to conditions: Table 5, L-02 supernatant, 24 h, 60μmol/L. On the procedure:
The normal hepatic cell (L02) cell lines were obtained from the National Infrastructure of Cell Line Resources (Chinese Academy of Medical Sciences, Beijing, China), and maintained in Dulbecco’s modified Eagle’s medium (DMEM, 10-013-CVR) supplemented with 10% fetal bovine serum (FBS, Hyclone), 1% penicillin and streptomycin (PS, 100 IU/ml penicillin, 100 μg/ml streptomycin, Mediatech, 30-002-CI). All cells were incubated in a humidified atmosphere at 37°C with 5% CO2.
To determine how potential liver injury-compounds affected biochemical indicators of L-02 cells, we investigated the activities of AST, ALT, LDH and ALP in cell migration capacity under the different representative compounds conditions (representative compounds group), the inhibitor conditions (inhibitor group), and the negative control. For these experiments, three replicates were made for each concentration of the different representative compounds with liver injury, and each group was established three holes and cultured in 6 times repeatedly. L02 cells were settled into 24-well plate at concentrations of 1.6 × 10^3 per well for 24h and then treated with the concentrations that had been determined by MTT method of the representative candidate liver injury compounds for another 24 h. […]

The structures appear in SMILES notation.

`COc1ccc2cc1Oc1ccc(cc1)C[C@H]1c3cc(c(OC)cc3CCN1C)Oc1c(OC)c(OC)cc3c1[C@H](C2)N(C)CC3` [Tetrandrine] registered an ALP of 16.39±0.81 King's unit /100ml.
